The conditions of this data set: mouse, in vivo, po.

In the case of `COc1cc2ncnc(Nc3ccc(F)c(Cl)c3)c2cc1OCCCN1CCOCC1` [Gefitinib, gefitinib], the CHO is reported as 142.00 ± 21.53 mg/dL, the CPK is on record as 192.57 ± 36.57 IU/L, the Ca came to 10.40 ± 0.28 mg/dL and the Na came to 141.29 ± 1.11 mmol/L. This compound also displayed a P of 10.13 ± 0.29 mg/dL.

The values are drawn from patent US20190060384A1, “COMPOSITION FOR TREATMENT OR PREVENTION OF LUNG CANCER AND A METHOD THEREFORE” (priority 2017, published 2019).
